Patent US12180221B2, “Compounds and uses thereof” (JANSSEN PHARMACEUTICA NV, priority 2018, dated 2024)

Sequences of proteins named here, by UniProt entry; tags and fusion partners are left off.
UniProt Q86SK9, whole entry: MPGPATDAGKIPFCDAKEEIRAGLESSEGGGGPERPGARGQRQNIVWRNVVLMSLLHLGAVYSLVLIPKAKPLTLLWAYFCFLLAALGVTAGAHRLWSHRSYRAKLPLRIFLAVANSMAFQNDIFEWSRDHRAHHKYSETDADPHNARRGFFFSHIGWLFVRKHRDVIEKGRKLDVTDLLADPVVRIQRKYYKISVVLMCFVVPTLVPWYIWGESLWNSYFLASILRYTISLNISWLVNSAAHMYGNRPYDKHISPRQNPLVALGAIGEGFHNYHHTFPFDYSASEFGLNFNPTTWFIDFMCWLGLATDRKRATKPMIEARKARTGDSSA
UniProt O00767, whole entry: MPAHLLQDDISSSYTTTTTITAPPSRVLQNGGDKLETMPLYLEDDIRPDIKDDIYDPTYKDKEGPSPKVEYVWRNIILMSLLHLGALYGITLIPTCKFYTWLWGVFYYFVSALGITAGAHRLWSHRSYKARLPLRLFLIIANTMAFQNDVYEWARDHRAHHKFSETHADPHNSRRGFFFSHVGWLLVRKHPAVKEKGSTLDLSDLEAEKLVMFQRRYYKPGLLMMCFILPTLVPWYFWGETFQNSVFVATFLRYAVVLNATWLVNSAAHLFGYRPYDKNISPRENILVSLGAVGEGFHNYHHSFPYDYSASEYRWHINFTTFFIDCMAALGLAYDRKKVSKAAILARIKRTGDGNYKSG

Experiments:
human SCD5 = human SCD5 (Homo sapiens, UniProt Q86SK9); test: Yeast growth assay, strain expressing human SCD5 as the sole desaturase (reduced growth as surrogate for SCD inhibition); assay type: cell-based; conditions: read-out: SCD5 IC50, growth (OD600) after 40 h at 30° C.
human SCD1 = human SCD1 (Homo sapiens, UniProt O00767); test: Yeast growth assay, strain expressing human SCD1 as the sole desaturase (reduced growth as surrogate for SCD inhibition); assay type: cell-based; conditions: read-out: SCD1 IC50, growth (OD600) after 40 h at 30° C.

CN1N=C(C(=O)Nc2ccc(Cc3ccc(Cl)c(F)c3)cn2)CCC1=O showed an IC50 (human SCD5) of 0.02 µM and an IC50 (human SCD1) of 2.07 µM.
